These are literature values, as cited in patent US20050182140A1, “Antimicrobial compositions” (Microban Products Company, priority 2003, published 2005).

The conditions of the series: approximately 95% active form, solid at room temperature; cited from earlier work.

As to “N-alkyl dimethylbenzyl ammonium saccharinate [ONYXIDE™ 3300]”, the solubility in water result was “insoluble in water”.
